Among the data in patent publication US20100022542A1, “COMPOUNDS EXHIBITING THROMBOPOIETIN RECEPTOR AGONISM” (Shionogi & Co., Ltd., priority 2000, published 2010) are EC50 values, retold here.

Amino acid sequences for entries named in this document (tags omitted). Residues count along the entry.
UniProt P40238, 26-635 limits assumed: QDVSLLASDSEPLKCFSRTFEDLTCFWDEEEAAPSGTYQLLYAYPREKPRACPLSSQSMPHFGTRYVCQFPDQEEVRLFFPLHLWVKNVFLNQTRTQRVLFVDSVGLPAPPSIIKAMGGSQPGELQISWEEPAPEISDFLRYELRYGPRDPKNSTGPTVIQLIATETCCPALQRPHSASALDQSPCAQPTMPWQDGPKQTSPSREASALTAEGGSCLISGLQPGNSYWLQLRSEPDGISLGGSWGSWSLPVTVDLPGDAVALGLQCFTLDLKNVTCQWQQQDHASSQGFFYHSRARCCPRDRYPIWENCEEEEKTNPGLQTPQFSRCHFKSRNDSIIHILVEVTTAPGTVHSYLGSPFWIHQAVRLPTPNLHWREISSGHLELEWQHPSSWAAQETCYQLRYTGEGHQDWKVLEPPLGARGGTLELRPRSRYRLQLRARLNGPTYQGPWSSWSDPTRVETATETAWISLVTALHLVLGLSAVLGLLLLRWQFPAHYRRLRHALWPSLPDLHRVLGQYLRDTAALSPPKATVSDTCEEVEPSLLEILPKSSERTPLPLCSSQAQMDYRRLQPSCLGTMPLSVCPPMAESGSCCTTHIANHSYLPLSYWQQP

For the assay, the target named is human TPO receptor (hTPOR) (Homo sapiens, UniProt P40238). The experiment in a line: Proliferation of TPO dependent BaF/hTPOR cells, WST-1, thrombopoietic activity ED50 (Test Example 3). The conditions noted are these: read-out: ED50, 20 h incubation then WST-1 4 h, absorbance at 450 nm. The source says:
FIG. 2: The chart represents proliferation of the human TPO dependent cells bearing human TPO receptors by the present invention compound, wherein the x-axis is concentration of the present invention compound, and the y-axis is the absorbance as an indicator of cell proliferation. Open circles indicate a response of human TPO, and closed circles indicate a response of the compound (B-1).
The TPO dependent BaF/hTPOR cell line which was established by introducing human TPO receptor (hTPOR) into BaF-B03 cells according to Collins et al (J. Cell. Physiol., 137:293-298 (1988)) was used to test the thrombopoietic activity of the present compound. The DNA sequences and encoded peptide sequences for human hTPOR have been described by Vigon et al (Proc. Natl. Acad. Sci. USA, 89:5640-5644 (1992)). TPO dose not have any ability to support proliferation of interleukin-3 dependent parental cell line BaF-B03. BAF/hTPOR cells were maintained in RPMI medium and WEHI-3B conditioned medium as a source of murine interleukin-3 (IL-3). These cells were washed and resuspended in RPMI medium without a source of murine IL-3 and seeded into each well of 96-well microtiter plates at a density of 5×10^4 cells per well in the absence or presence of various concentration of hTPO or the present compound. After incubation at 37° C. for 20 hours in the 5% CO2 incubator, 10% WST-1 reagent (Takara Biomedicals, Japan) was added to each wells and the cells were further incubated for 4 hours. Effect of the present compound on the growth of BAF/mTPOR cell line which was established by introducing murine TPO receptor (mTPOR) into BAF-B03 cells is shown in FIG. 3. Table 8 exemplifies the ED50 for tested compounds of the present invention, wherein the ED50 is the half concentration of the concentration showing the maximum thrombopoietic activity.
(Formazan colour is commonly taken as a measure of viable cells.)
For `COCCCNC(=O)/C(C)=C/c1ccc(C(=O)Nc2nc(-c3ccc(Cl)c(Cl)c3)cs2)cc1`, the EC50 amounted to 139 nM.
The result for `CNC(=O)c1ccc(/C=C/C(=O)Nc2nc(-c3ccc(F)c(F)c3)cs2)cc1` reads 975 nM.
As for `O=C(O)/C(Cl)=C/c1ccc(C(=O)Nc2nc(-c3ccc(C(F)(F)F)c(Br)c3F)cs2)cc1`, the figure is 805 nM; as for `CNC(=O)c1ccc(/C=C(\F)C(=O)Nc2nc(-c3ccc(Cl)c(Cl)c3)cs2)cc1`, 403 nM; as for `O=C(Nc1nc(-c2ccc(Cl)c(Cl)c2)cs1)c1ccc(-c2ccnc(C(=O)O)c2)cc1`, 465 nM.
The result for `O=C(/C=C/c1ccc(C(=O)O)cc1)Nc1nc(-c2ccc(Cl)c(Cl)c2)cs1` reads 77 nM.
`CNC(=O)c1ccc(/C=C/C(=O)Nc2nc(-c3ccc(Cl)c(Cl)c3)cs2)cc1`: the EC50 is 189 nM.
As for `CC(C)(C)NS(=O)(=O)c1ccc(/C=C/C(=O)Nc2nc(-c3ccc(Cl)c(Cl)c3)cs2)cc1`, the figure is 373 nM; as for `C/C(=C\c1ccc(S(N)(=O)=O)cc1)C(=O)Nc1nc(-c2ccc(Cl)c(Cl)c2)cs1`, 475 nM.
As for `CCOC(=O)/C(C)=C/c1ccc(C(=O)Nc2nc(-c3ccc(Cl)c(Cl)c3)cs2)cc1`, the figure is 117 nM; as for `O=C(/C=C/c1ccc(S(=O)(=O)O)cc1)Nc1nc(-c2ccc(Cl)c(Cl)c2)cs1`, 260 nM; as for `C/C(=C\c1ccc(C(=O)Nc2nc(-c3ccc(Cl)c(Cl)c3)cs2)cc1)C(N)=O`, 81 nM.
As for `CCCCCc1cc(-c2csc(NC(=O)c3ccc(/C=C(\Cl)C(=O)O)cc3)n2)ccc1F`, the figure is 26 nM.
As to `O=C(O)/C(Cl)=C/c1ccc(C(=O)Nc2nc(-c3cc(Cl)ccc3Cl)cs2)cc1`, the EC50 stood at 178 nM.
The result for `COC(=O)c1ccc(/C=C/C(=O)Nc2nc(-c3ccc(Cl)c(Cl)c3)cs2)cc1` reads 693 nM; that for `C/C(=C\c1ccc(C(=O)Nc2nc(-c3ccc(Cl)c(Cl)c3)cs2)cc1)C(=O)NCC(C)C`, 186 nM.
As for `O=C(O)/C(Cl)=C/c1ccc(C(=O)Nc2nc(-c3cccc(C(F)(F)F)c3F)cs2)s1`, the figure is 250 nM; as for `CCOC(=O)/C(C)=C/c1ccc(C(=O)Nc2nc(-c3cccc(F)c3)cs2)cc1`, 864 nM; as for `NS(=O)(=O)c1ccc(/C=C/C(=O)Nc2nc(-c3ccc(Cl)c(Cl)c3)cs2)cc1`, 208 nM.
With `C/C(=C\c1ccc(C(=O)Nc2nc(-c3ccc(Cl)c(Cl)c3)cs2)cc1)C(=O)O`, the EC50 stood at 66 nM.
